{"sequences": {"note": "Amino acid sequences for entries named in this document (tags omitted).", "UniProt P47746, whole entry": "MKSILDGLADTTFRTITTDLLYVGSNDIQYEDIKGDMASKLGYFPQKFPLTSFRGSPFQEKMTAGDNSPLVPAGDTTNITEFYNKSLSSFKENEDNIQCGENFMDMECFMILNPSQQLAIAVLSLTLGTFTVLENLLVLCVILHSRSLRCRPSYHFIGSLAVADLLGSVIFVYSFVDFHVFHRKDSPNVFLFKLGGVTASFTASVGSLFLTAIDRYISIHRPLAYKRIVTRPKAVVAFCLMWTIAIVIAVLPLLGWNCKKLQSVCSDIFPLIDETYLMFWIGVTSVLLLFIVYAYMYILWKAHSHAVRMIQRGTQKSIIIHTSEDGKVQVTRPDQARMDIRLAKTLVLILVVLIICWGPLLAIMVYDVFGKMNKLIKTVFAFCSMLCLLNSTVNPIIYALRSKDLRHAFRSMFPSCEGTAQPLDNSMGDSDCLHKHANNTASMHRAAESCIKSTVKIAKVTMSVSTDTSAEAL"}, "source": "paper PMC6953423", "about": "(Journal of medicinal chemistry, 2019)", "target": "mouse CB1 (Mus musculus, UniProt P47746)", "experiment": "mCB1 [35S]GTPγS binding assay in mouse cerebellar membranes", "conditions": "IC50 at 100 nM vs 1 μM CP55,940", "data": [{"compound": "O=C(Nc1ccc(Cl)cc1)Nc1ccc(-c2ccc(F)cc2F)s1", "note": "[Compound 20, 1‐(4‐Chlorophenyl)‐3‐[5‐(2,4‐difluorophenyl)thiophen‐2‐yl]urea]", "values": [{"measurement": "IC50 Fold Change", "value": 3}]}]}
